This note sets out measurements from patent US6168776A (priority 1997, dated 2001).

Protein sequences, listed by entry. Tags and fused reporters are not part of them. Residues count along the entry.
UniProt P05067, 681-714: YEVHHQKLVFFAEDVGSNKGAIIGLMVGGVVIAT

Series [1] is described as follows: Total [14C] Chrysamine G binding to AD brain homogenates. Further details: species or system human.
Series [2] can be described thus: Total [14C] Chrysamine G binding to control brain homogenates. The arrangement: species or system human.
A short description of series [3]: Tissue levels after i.v. injection of [14C] Chrysamine G in mice (blood-brain barrier). Format: in vivo, Swiss-Webster mice. The note with it: 15 min, highest of time points sampled.
The next series deals with Aβ(10-43) (Homo sapiens, UniProt P05067). The series is described as follows: Inhibition of [14C] Chrysamine G binding to Aβ(10-43). The following applies: in words; vs Chrysamine G or, for Chrysamine G, vs Congo red.
The subject of a further series is PC-12 cells. Nature of the series: Protection from Aβ(25-35)-induced toxicity in PC-12 cells (MTT reduction). The following applies: in words.

As for `O=C(O)c1cc(N=Nc2ccc(-c3ccc(N=Nc4ccc(O)c(C(=O)O)c4)cc3)cc2)ccc1O` [Chrysamine G, 4,4'-bis(3-carboxy-4-hydroxyphenylazo)-biphenyl], the “total binding as a ratio to cerebellum (CBR)” value in series [1] (Frontal Pole, AD (n = 10), p < 0.004) is 1.87 ± .25; in series [1] (Head of Caudate, AD (n = 7), p < 0.04) it was 1.76 ± .31; in series [1] (Inferior Parietal, AD (n = 11), p < 0.003), 1.93 ± .20; in series [1] (Occipital, AD (n = 11), p < 0.02), 1.44 ± .20; in series [1] (Superior Temporal, AD (n = 11), p < 0.002) it was 1.63 ± .17; in series [1] (Superior/Middle Frontal, AD (n = 11), p < 0.001), 1.84 ± .18. The “total binding as a ratio to cerebellum (CBR)” value in series [2] (Frontal Pole, Control (n = 6)) was 0.87 ± .04; in series [2] (Head of Caudate, Control (n = 4)) it was 0.95 ± .04; in series [2] (Inferior Parietal, Control (n = 8)), 0.90 ± .08; in series [2] (Occipital, Control (n = 8)), 0.77 ± .13; in series [2] (Superior Temporal, Control (n = 8)) it was 0.86 ± .08; in series [2] (Superior/Middle Frontal, Control (n = 8)), 0.73 ± .02. Besides, the “overlap of binding ratio between control and AD samples” value in series [1] (all brain areas except occipital cortex, AD samples >20 NPs/×200) is “no overlap between control and the AD samples”; in series [1] (superior/middle frontal cortex), “no overlap between control and any of the AD samples”. The brain/kidney ratio in series [3] is about 0.5. In addition, on Aβ(10-43), the “potency/affinity relative to reference compound” value is on record as “several fold greater than the affinity of Congo red”. In addition, the “potency of protection relative to Congo red” value in the series on PC-12 cells is given as “more potent than Congo red”.
